Assay: PPA-Erbitux delivery to the brain by LC-MS/MS
Assay type: in vivo
Settings: normal mice; intranasal; after administration

With “PPA-Erbitux: therapeutic antibody-conjugated PPA” the “time of highest level in brain tissue” value was 2 h.
